According to article PMC3914206:

Assays:
Format in all cases: binding
Conditions in all cases: Compound Concentration 10 µM
panel of 442 kinases [1] = biological target: T1, panel of 442 kinases (Homo sapiens, UniProt Q96Q40)
T1 construct: purchased KINOMEscan
From the text: (§1) We assessed the selectivity of members of this scaffold using the KINOMEscan methodology across a near comprehensive panel of 442 kinases [[18,27]].

panel of 442 kinases [2] = biological target: T2, panel of 442 kinases (Homo sapiens, UniProt P31751)
T2 construct: purchased KINOMEscan
From the text: as §1

panel of 442 kinases [3] = biological target: T3, panel of 442 kinases (Homo sapiens, UniProt Q13131)
T3 construct: purchased KINOMEscan
From the text: as §1

panel of 442 kinases [4] = biological target: T4, panel of 442 kinases (Homo sapiens, UniProt O95835)
T4 construct: purchased KINOMEscan
From the text: as §1

panel of 442 kinases [5] = biological target: T5, panel of 442 kinases (Homo sapiens, UniProt O76039)
T5 construct: purchased KINOMEscan
From the text: as §1

panel of 442 kinases [6] = biological target: T6, panel of 442 kinases (Homo sapiens, UniProt P17612)
T6 construct: purchased KINOMEscan
From the text: as §1

panel of 442 kinases [7] = biological target: T7, panel of 442 kinases (Homo sapiens, UniProt Q8IW41)
T7 construct: purchased KINOMEscan
From the text: as §1

panel of 442 kinases [8] = biological target: T8, panel of 442 kinases (Homo sapiens, UniProt P51451)
T8 construct: purchased KINOMEscan
From the text: as §1

panel of 442 kinases [9] = biological target: T9, panel of 442 kinases (Homo sapiens, UniProt Q9BQI3)
T9 construct: purchased KINOMEscan
From the text: as §1

panel of 442 kinases [10] = biological target: T10, panel of 442 kinases (Homo sapiens, UniProt P00519, E255K)
T10 construct: purchased KINOMEscan
From the text: as §1

panel of 442 kinases [11] = biological target: T11, panel of 442 kinases (Homo sapiens, UniProt P07949, V804M)
T11 construct: purchased KINOMEscan
From the text: as §1

panel of 442 kinases [12] = biological target: T12, panel of 442 kinases (Homo sapiens, UniProt Q13188)
T12 construct: purchased KINOMEscan
From the text: as §1

panel of 442 kinases [13] = biological target: T13, panel of 442 kinases (Homo sapiens, UniProt P21860)
T13 construct: purchased KINOMEscan
From the text: as §1

panel of 442 kinases [14] = biological target: T14, panel of 442 kinases (Homo sapiens, UniProt Q15835)
T14 construct: purchased KINOMEscan
From the text: as §1

panel of 442 kinases [15] = biological target: T15, panel of 442 kinases (Homo sapiens, UniProt O43293)
T15 construct: purchased KINOMEscan
From the text: as §1

panel of 442 kinases [16] = biological target: T16, panel of 442 kinases (Homo sapiens, UniProt P53671)
T16 construct: purchased KINOMEscan
From the text: as §1

panel of 442 kinases [17] = biological target: T17, panel of 442 kinases (Homo sapiens, UniProt Q13164)
T17 construct: purchased KINOMEscan
From the text: as §1

panel of 442 kinases [18] = biological target: T18, panel of 442 kinases (Homo sapiens, UniProt Q9Y2H1)
T18 construct: purchased KINOMEscan
From the text: as §1

panel of 442 kinases [19] = biological target: T19, panel of 442 kinases (Homo sapiens, UniProt P42336, E545K)
T19 construct: purchased KINOMEscan
From the text: as §1

panel of 442 kinases [20] = biological target: T20, panel of 442 kinases (Homo sapiens, UniProt P31152)
T20 construct: purchased KINOMEscan
From the text: as §1

panel of 442 kinases [21] = biological target: T21, panel of 442 kinases (Homo sapiens, UniProt Q99683)
T21 construct: purchased KINOMEscan
From the text: as §1

panel of 442 kinases [22] = biological target: T22, panel of 442 kinases (Homo sapiens, UniProt P21127)
T22 construct: purchased KINOMEscan
From the text: as §1

panel of 442 kinases [23] = biological target: T23, panel of 442 kinases (Homo sapiens, UniProt O14733)
T23 construct: purchased KINOMEscan
From the text: as §1

panel of 442 kinases [24] = biological target: T24, panel of 442 kinases (Homo sapiens, UniProt Q9C098)
T24 construct: purchased KINOMEscan
From the text: as §1

panel of 442 kinases [25] = biological target: T25, panel of 442 kinases (Homo sapiens, UniProt Q13976)
T25 construct: purchased KINOMEscan
From the text: as §1

panel of 442 kinases [26] = biological target: T26, panel of 442 kinases (Homo sapiens, UniProt Q14004)
T26 construct: purchased KINOMEscan
From the text: as §1

panel of 442 kinases [27] = biological target: T27, panel of 442 kinases (Homo sapiens, UniProt P08581)
T27 construct: purchased KINOMEscan
From the text: as §1

panel of 442 kinases [28] = biological target: T28, panel of 442 kinases (Homo sapiens, UniProt P57078)
T28 construct: purchased KINOMEscan
From the text: as §1

panel of 442 kinases [29] = biological target: T29, panel of 442 kinases (Homo sapiens, UniProt P48729)
T29 construct: purchased KINOMEscan
From the text: as §1

panel of 442 kinases [30] = biological target: T30, panel of 442 kinases (Homo sapiens, UniProt P78356)
T30 construct: purchased KINOMEscan
From the text: as §1

panel of 442 kinases [31] = biological target: T31, panel of 442 kinases (Homo sapiens, UniProt Q9UEE5)
T31 construct: purchased KINOMEscan
From the text: as §1

panel of 442 kinases [32] = biological target: T32, panel of 442 kinases (Homo sapiens, UniProt P14616)
T32 construct: purchased KINOMEscan
From the text: as §1

panel of 442 kinases [33] = biological target: T33, panel of 442 kinases (Homo sapiens, UniProt O94768)
T33 construct: purchased KINOMEscan
From the text: as §1

panel of 442 kinases [34] = biological target: T34, panel of 442 kinases (Homo sapiens, UniProt P51956)
T34 construct: purchased KINOMEscan
From the text: as §1

panel of 442 kinases [35] = biological target: T35, panel of 442 kinases (Homo sapiens, UniProt P50613)
T35 construct: purchased KINOMEscan
From the text: as §1

panel of 442 kinases [36] = biological target: T36, panel of 442 kinases (Homo sapiens, UniProt Q15375)
T36 construct: purchased KINOMEscan
From the text: as §1

panel of 442 kinases [37] = biological target: T37, panel of 442 kinases (Homo sapiens, UniProt Q13177)
T37 construct: purchased KINOMEscan
From the text: as §1

panel of 442 kinases [38] = biological target: T38, panel of 442 kinases (Homo sapiens, UniProt O96013)
T38 construct: purchased KINOMEscan
From the text: as §1

panel of 442 kinases [39] = biological target: T39, panel of 442 kinases (Homo sapiens, UniProt P00519, Q252H)
T39 construct: purchased KINOMEscan
From the text: as §1

panel of 442 kinases [40] = biological target: T40, panel of 442 kinases (Homo sapiens, UniProt P23458)
T40 construct: purchased KINOMEscan
From the text: as §1

panel of 442 kinases [41] = biological target: T41, panel of 442 kinases (Homo sapiens, UniProt Q6DT37)
T41 construct: purchased KINOMEscan
From the text: as §1

panel of 442 kinases [42] = biological target: T42, panel of 442 kinases (Homo sapiens, UniProt P53778)
T42 construct: purchased KINOMEscan
From the text: as §1

Q: Which “KINOMEscan: PFTAIRE2” value (panel of 442 kinases [1]) does the source give for COc1cc(C(=O)N2CCC(N3CCN(C)CC3)CC2)ccc1Nc1ncc2c(n1)N1CCc3cccc(c31)C(=O)N2C [Compound 24] here?
A: 93

Q: And the “KINOMEscan: AKT2” value (panel of 442 kinases [2])?
A: 100

Q: And the “KINOMEscan: AMPK-alpha1” value (panel of 442 kinases [3])?
A: 80

Q: And the “KINOMEscan: LATS1” value (panel of 442 kinases [4])?
A: 100

Q: What about the “KINOMEscan: CDKL5” value (panel of 442 kinases [5]) of the same molecule?
A: 100

Q: And the “KINOMEscan: PKAC-alpha” value (panel of 442 kinases [6])?
A: 91

Q: What about the “KINOMEscan: MAPKAPK5” value (panel of 442 kinases [7]) of the same molecule?
A: 100

Q: What about the “KINOMEscan: BLK” value (panel of 442 kinases [8]) of the same molecule?
A: 100

Q: And the “KINOMEscan: EIF2AK1” value (panel of 442 kinases [9])?
A: 100

Q: What about the “KINOMEscan: ABL1(E255K)-phosphorylated” value (panel of 442 kinases [10]) of the same molecule?
A: 82

Q: What about the “KINOMEscan: RET(V804M)” value (panel of 442 kinases [11]) of the same molecule?
A: 100

Q: What about the “KINOMEscan: MST2” value (panel of 442 kinases [12]) of the same molecule?
A: 100

Q: And the “KINOMEscan: ERBB3” value (panel of 442 kinases [13])?
A: 100

Q: What about the “KINOMEscan: GRK1” value (panel of 442 kinases [14]) of the same molecule?
A: 100

Q: What about the “KINOMEscan: DAPK3” value (panel of 442 kinases [15]) of the same molecule?
A: 18

Q: What about the “KINOMEscan: LIMK2” value (panel of 442 kinases [16]) of the same molecule?
A: 100

Q: And the “KINOMEscan: ERK5” value (panel of 442 kinases [17])?
A: 0.1

Q: What about the “KINOMEscan: NDR2” value (panel of 442 kinases [18]) of the same molecule?
A: 100

Q: And the “KINOMEscan: PIK3CA(E545K)” value (panel of 442 kinases [19])?
A: 100

Q: And the “KINOMEscan: ERK4” value (panel of 442 kinases [20])?
A: 100

Q: What about the “KINOMEscan: ASK1” value (panel of 442 kinases [21]) of the same molecule?
A: 100

Q: What about the “KINOMEscan: CDC2L1” value (panel of 442 kinases [22]) of the same molecule?
A: 98

Q: What about the “KINOMEscan: MKK7” value (panel of 442 kinases [23]) of the same molecule?
A: 100

Q: What about the “KINOMEscan: DCAMKL3” value (panel of 442 kinases [24]) of the same molecule?
A: 100

Q: And the “KINOMEscan: PRKG1” value (panel of 442 kinases [25])?
A: 100

Q: What about the “KINOMEscan: CDC2L5” value (panel of 442 kinases [26]) of the same molecule?
A: 100

Q: What about the “KINOMEscan: MET” value (panel of 442 kinases [27]) of the same molecule?
A: 100

Q: And the “KINOMEscan: RIPK4” value (panel of 442 kinases [28])?
A: 100

Q: What about the “KINOMEscan: CSNK1A1” value (panel of 442 kinases [29]) of the same molecule?
A: 100

Q: And the “KINOMEscan: PIP5K2B” value (panel of 442 kinases [30])?
A: 96

Q: What about the “KINOMEscan: DRAK1” value (panel of 442 kinases [31]) of the same molecule?
A: 100

Q: What about the “KINOMEscan: INSRR” value (panel of 442 kinases [32]) of the same molecule?
A: 97

Q: What about the “KINOMEscan: DRAK2” value (panel of 442 kinases [33]) of the same molecule?
A: 100

Q: And the “KINOMEscan: NEK3” value (panel of 442 kinases [34])?
A: 99

Q: What about the “KINOMEscan: CDK7” value (panel of 442 kinases [35]) of the same molecule?
A: 100

Q: And the “KINOMEscan: EPHA7” value (panel of 442 kinases [36])?
A: 91

Q: And the “KINOMEscan: PAK2” value (panel of 442 kinases [37])?
A: 90

Q: And the “KINOMEscan: PAK4” value (panel of 442 kinases [38])?
A: 85

Q: And the “KINOMEscan: ABL1(Q252H)-nonphosphorylated” value (panel of 442 kinases [39])?
A: 81

Q: What about the “KINOMEscan: ABL1(Q252H)-phosphorylated” value (panel of 442 kinases [39]) of the same molecule?
A: 100

Q: And the “KINOMEscan: JAK1(JH1domain-catalytic)” value (panel of 442 kinases [40])?
A: 100

Q: What about the “KINOMEscan: DMPK2” value (panel of 442 kinases [41]) of the same molecule?
A: 100

Q: And the “KINOMEscan: p38-gamma” value (panel of 442 kinases [42])?
A: 61
